Test results taken from paper PMC7673040.

Key:
[1] = biological target: human signal recognition particle labeled with tetramethylrhodamine at residue 12 of SRP54 (human) (UniProt P61011); assay: FRET or BRET; competition: 2.6 nM RNC(ss)^BDP and 4 nM SRP^TMR at equilibrium, 80S titrated in, with 1 uM NAC; fit to Eq. (7); 25 °C, Assay buffer with 1 mg/mL BSA
[2] = biological target: human signal recognition particle labeled with tetramethylrhodamine at residue 12 of SRP54 (human) (UniProt P61011); assay: FRET or BRET; competition: 2.6 nM RNC(ss)^BDP and 4 nM SRP^TMR at equilibrium, 80S titrated in, no NAC; fit to Eq. (7); 25 °C, Assay buffer with 1 mg/mL BSA
[3] = biological target: signal recognition particle (SRP), human, labelled with tetramethylrhodamine (TMR) at residue 12 of SRP54 (human) (UniProt P61011); assay: other fluorescence titration; competition: 2.6 nM RNC^BDP (RNC(ss)) and 4 nM SRP^TMR at equilibrium, 80S titrated in, with or without NAC; fit to Eq. (7); Assay buffer with 1 mg/mL BSA
[4] = biological target: ribosome-nascent chain complex bearing the first ~90 amino acids of pPL(ssmt), labelled with BODIPY-FL on the nascent chain (bovine) (UniProt P01239); assay: other fluorescence titration; as a20 with unlabeled SRP premixed with RNC^BDP at increasing, up to saturating, concentrations; apparent Kd,NAC
[5] = biological target: ribosome-nascent chain complex bearing the first ~90 amino acids of pPL(ss), labelled with BODIPY-FL on the nascent chain (bovine); assay: as above
[6] = biological target: ribosome-nascent chain complex bearing the first ~90 amino acids of pPL(ssmt), labelled with BODIPY-FL on the nascent chain (bovine) (UniProt P01239); assay: other fluorescence titration; equilibrium FRET titrations of SRP^TMR into 1 nM RNC^BDP with unlabeled NAC premixed (0-400 nM for RNC(ss), 0-62.5 nM for RNC(ssmt)); global fit to the anti-cooperative co-binding model, Eq. (8); 25 °C, Assay buffer with 1 mg/mL BSA
[7] = biological target: ribosome-nascent chain complex bearing the first ~90 amino acids of pPL(ss), labelled with BODIPY-FL on the nascent chain (bovine); assay: as above
[8] = biological target: ribosome-nascent chain complex bearing the first ~90 amino acids of pPL(ssmt), labelled with BODIPY-FL on the nascent chain (bovine) (UniProt P01239)

Question: Which Ki [1] does the source give for 80S ribosome (complex) here?
Answer: 9.5 nM

Question: What about the Ki [2] of the same substance?
Answer: 19.6 nM

Question: What about the Kd [3] of the same substance?
Answer: 20 nM

Question: Which fold increase of Kd,NAC at saturating SRP [4] does the source give for “human NAC labelled with Cy3B at the engineered single cysteine C57 of NACβ (from UniProt Q13765 1-215; P20290-2 1-162) (complex)” here?
Answer: < 2 fold

Question: What about the fold increase of Kd,NAC at saturating SRP [5] of the same substance?
Answer: 6 fold

Question: Which results are given for “human nascent polypeptide-associated complex (NAC), unlabeled (from UniProt Q13765 1-215; P20290-2 1-162)”?
Answer: KD for SRP-bound RNC (α•Kd,NAC) [6]: 3.4 nM; KD for SRP-bound RNC (α•Kd,NAC) [7]: 9.2 nM; apparent rate constant of SRP-SR association (10 nM SRP, 300 nM SR) on 200 nM unlabeled RNC(ssmt) against NAC concentration [8]: > 150 nM
